Measured values as given in US20220389400.

Target: amyloid precursor protein, APP751 isoform, P05067

Protein | APP-cleaving activity (Western blot, sAPPα antibody) | SAS activity (FIG. 7)
SAS^N70Q (protein) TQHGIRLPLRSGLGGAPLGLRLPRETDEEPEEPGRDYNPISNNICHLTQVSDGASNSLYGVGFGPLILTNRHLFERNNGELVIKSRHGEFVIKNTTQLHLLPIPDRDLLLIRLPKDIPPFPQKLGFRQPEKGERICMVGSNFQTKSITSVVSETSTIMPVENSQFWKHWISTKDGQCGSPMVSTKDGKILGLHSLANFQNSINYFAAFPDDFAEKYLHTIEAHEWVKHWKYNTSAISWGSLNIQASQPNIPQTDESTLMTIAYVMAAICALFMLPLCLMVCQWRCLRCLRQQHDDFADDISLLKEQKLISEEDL | showed stronger activity than the original SAS | 
SAS^d20 (protein) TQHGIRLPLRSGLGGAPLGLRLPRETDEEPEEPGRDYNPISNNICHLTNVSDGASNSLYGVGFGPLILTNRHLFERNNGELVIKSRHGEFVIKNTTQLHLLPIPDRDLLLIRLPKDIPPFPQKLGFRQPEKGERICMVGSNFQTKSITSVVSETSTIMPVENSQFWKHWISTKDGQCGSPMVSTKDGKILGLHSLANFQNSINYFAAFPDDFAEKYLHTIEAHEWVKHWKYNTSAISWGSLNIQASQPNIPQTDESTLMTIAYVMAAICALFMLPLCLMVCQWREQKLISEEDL |  | among the various versions of SAS, the SAS^d20 activity was the most outstanding
